This experiment addresses hPPARγ-LBD (Homo sapiens, UniProt P37231). The experiment in a line: Differential scanning fluorimetry (thermal shift) on hPPARγ-LBD. The experiment is classed as binding. Also on record: human PPARγ (amino acids Glu196-Tyr477); made in house. The settings on record: seven molar excess of ligand. The text has this: PPARγ is a nuclear hormone receptor regulating numerous biological functions including adipogenesis and cell differentiation. Its dysregulation is involved in the onset of diabetes and obesity. The interaction of the ligand binding domain (LBD) of human PPARγ (hPPARγ-LBD) with CoA is one of our most promising predictions, because this interaction achieved a high iDTP score and statistically significant co-citation index (SI Table 3). The pocket predicted by iDTP to bind CoA overlaps with the known ligand binding site of this receptor.
This method measures the protein unfolding based on fluorescence detection of the denatured form of the protein [59]. […] Fluorescence changes in the wells were monitored with a photomultiplier tube. […] The melting temperatures, Tm, were obtained by fitting the fluorescence data with a Boltzmann model using the GraphPad Prism software.
Differential scanning fluorimetry (DSF or Thermofluor). This method measures protein unfolding based on fluorescence detection of the denatured form of the protein (Pantoliano et al., 2001). […] Fluorescence changes in the wells were monitored with a photomultiplier tube. […] The melting temperatures, Tm, were obtained by fitting the fluorescence data with a Boltzmann model using GraphPad Prism software.

Amino acid sequences for entries named in this document (tags omitted). Residues count along the entry.
UniProt P37231, 224-505: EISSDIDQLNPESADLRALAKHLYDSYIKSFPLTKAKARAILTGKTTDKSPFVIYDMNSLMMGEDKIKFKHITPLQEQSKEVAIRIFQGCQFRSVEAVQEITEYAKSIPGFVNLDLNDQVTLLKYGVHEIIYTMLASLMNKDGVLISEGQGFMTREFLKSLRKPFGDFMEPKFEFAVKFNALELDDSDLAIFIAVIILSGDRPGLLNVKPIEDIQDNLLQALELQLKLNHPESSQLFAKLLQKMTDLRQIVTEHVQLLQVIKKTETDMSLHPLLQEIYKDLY

Take `CN(CCOc1ccc(CC2SC(=O)NC2=O)cc1)c1ccccn1` (stereo not shown) [Rosiglitazone, reference compound]: the “raise of hPPARγ-LBD Tm compared to the apo-protein” value amounted to 2 °C.

(Values after US20170316147A1, “METHODS AND SYSTEMS FOR IDENTIFYING LIGAND-PROTEIN BINDING SITES” (King Abdullah University of Science and Technology, priority 2014, published 2017).)
